# Measured melting point values of organic chemicals

Values as listed in the OPERA 2.9 repository of K. Mansouri.

Melting points are in °C. "n/a" marks a cell with nothing listed here.

SMILES	name	mp (°C)
Cc1ccc(-c2csc(NC(=O)CCl)n2)cc1	2-Chloro-N-[4-(4-methylphenyl)-1,3-thiazol-2-yl]acetamide	170
Cc1ccc(C)c(OCC(=O)NN)c1	2-(2,5-dimethylphenoxy)acetohydrazide	154
NC(=S)CC(=O)NCc1ccccc1	3-amino-N-benzyl-3-thioxopropanamide	114
NC(=O)c1cc(N2CCCCC2)ccc1N	2-amino-5-piperidin-1-ylbenzamide	169
Cc1ccc(C)c(NC(=O)CCl)c1	2-chloro-N-(2,5-dimethylphenyl)acetamide	162
Cc1n[nH]c(=S)o1	5-Methyl-[1,3,4]oxadiazole-2-thiol	240
O=c1[nH]c(CN2CCOCC2)nc2sc3c(c12)CCCC3	n/a	163
CC(C)(C)/C([O-])=C/C(=O)C(F)(F)C(F)(F)C(F)(F)F.CC(C)(C)/C([O-])=C/C(=O)C(F)(F)C(F)(F)C(F)(F)F.CC(C)(C)/C([O-])=C/C(=O)C(F)(F)C(F)(F)C(F)(F)F.[Pr+3]	n/a	217
O=C(O)c1oc2ccccc2c1COc1ccccc1	3-(Phenoxymethyl)-2-benzofurancarboxylic acid	164
COc1ccc(C(C)=O)cc1CN1CCCCC1	1-{4-Methoxy-3-[(piperidin-1-yl)methyl]phenyl}ethan-1-one	55
CCC(F)(F)C(F)(F)C(F)(F)C(F)(F)C(F)(F)C(F)(F)C(F)(F)C(F)(F)F	(Perfluoro-n-octyl)ethane	-37.7
Cc1c(N=Nc2ccc(Cl)c(Cl)c2)c(O)n(C)c(=O)c1C#N	C.I. Disperse Yellow 241	252.5
Fc1ccccc1-n1cn[nH]c1=S	4-(2-fluorophenyl)-4H-1,2,4-triazole-3-thiol	168
C=CCc1ccc(OCC(=O)O)c(OC)c1	Acetic acid, [2-methoxy-4-(2-propenyl)phenoxy]-	170
CCCCOCCCN1C(C(C(=O)Nc2cc(C(C)(C)C)ccc2SCC(CC)CCCC)N2C(=O)OC(C)(C)C2=O)=Nc2ccccc2S1(=O)=O (stereo unspecified)	n/a	127
CCCCc1ccc(-c2ccc(OCC)c(F)c2F)cc1	n/a	36
Nc1ccc(S(=O)(=O)Nc2cccnc2)cc1	4-amino-N-pyridin-3-ylbenzenesulfonamide	257
CCCc1ccc(-c2ccc(-c3ccc(CC)cc3)c(F)c2F)cc1	4-Ethyl-2',3'-difluoro-4''-propyl-1,1':4',1''-terphenyl	71.4
FC(F)(F)C(F)(F)C(F)(F)C(F)(F)CC[SiH2]C(Cl)Cl	Dichloromethyl(3,3,4,4,5,5,6,6,6-nonafluorohexyl)silane	-42.3
Nc1n[nH]c(-c2ccccc2)n1	1H-1,2,4-Triazole, 3-amino-5-phenyl-	56
N#CCC(=O)c1cccc([N+](=O)[O-])c1	3-(3-Nitrophenyl)-3-oxopropanenitrile	150
COCc1ccc(C(=O)O)cc1	4-(methoxymethyl)benzoic acid	90
NNC(=O)Cc1ccc(Cl)cc1	2-(4-Chlorophenyl)acetohydrazide	166
CC(CCO)CC1=CCCCC1 (stereo unspecified)	1-Cyclohexene-1-butanol, .gamma.-methyl-	-24
Brc1cccc(Oc2ccc(Br)cc2Br)c1	2,4-Dibromo-1-(3-bromophenoxy)benzene	20
O=C(O)CCc1n[nH]c(=O)[nH]c1=O	n/a	204
O=C(O)c1c[nH]c2ccc(Br)cc12	5-bromo-1H-indole-3-carboxylic acid	239
O=C(O)C1(C(=O)Nc2ccc(Cl)cc2Cl)CC1	Cyclanilide	195.8
Cl.NC(CO)C(=O)N/N=C/c1ccc(O)c(O)c1O (stereo partly drawn)	n/a	218
O=C1OC(=O)c2cc(-c3ccc4c(c3)C(=O)OC4=O)ccc21	5,5'-Bi-2-benzofuran-1,1',3,3'-tetrone	297.3
N#Cc1cnc(C(F)(F)C(F)(F)C(F)(F)F)nc1N	4-Amino-2-(heptafluoropropyl)pyrimidine-5-carbonitrile	148.5
COc1ccccc1C(=N)NO	N-Hydroxy-2-methoxybenzene-1-carboximidamide	106

5 of these entries, quoted again:

| SMILES | name | mp (°C) |
|---|---|---|
| CC(C)(C)/C([O-])=C/C(=O)C(F)(F)C(F)(F)C(F)(F)F.CC(C)(C)/C([O-])=C/C(=O)C(F)(F)C(F)(F)C(F)(F)F.CC(C)(C)/C([O-])=C/C(=O)C(F)(F)C(F)(F)C(F)(F)F.[Pr+3] | n/a | 217 |
| COc1ccc(C(C)=O)cc1CN1CCCCC1 | 1-{4-Methoxy-3-[(piperidin-1-yl)methyl]phenyl}ethan-1-one | 55 |
| Cc1ccc(C)c(NC(=O)CCl)c1 | 2-chloro-N-(2,5-dimethylphenyl)acetamide | 162 |
| N#Cc1cnc(C(F)(F)C(F)(F)C(F)(F)F)nc1N | 4-Amino-2-(heptafluoropropyl)pyrimidine-5-carbonitrile | 148.5 |
| O=c1[nH]c(CN2CCOCC2)nc2sc3c(c12)CCCC3 | n/a | 163 |

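The OPERA project collected these measurements from public sources as training and test data for property models. One number stands for a compound and property, with no spread given. Method, purity and exact conditions of the single measurements are not given. Where a salt, mixture or single isomer is drawn, the source does not say that exactly this form was tested. Some entries may be limits or estimates that an upstream database listed as plain numbers.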